# Results reported in patent publication US20230277612A1, “SAPONIN DERIVATIVES FOR USE IN MEDICINE” (priority 2020, published 2023).
# Tests used:
# Format in all cases: cell-based
# HSP27 mRNA [1] = test: HSP27 mRNA gene silencing analysis in A431 cells
# From the text: (§1) RNA from cells was isolated and analysed according to standard protocols (Biorad). qPCR primers that were used are indicated in Table A10.
# human red blood cells = conditions: read-out: IC50 hemolytic activity
# Procedure: Red blood cells (RBCs) were isolated from a buffy coat using a Ficoll gradient. The obtained RBC pellet (˜4-5 ml) was washed 2× with 50 ml DPBS (without Ca^2+/Mg^2+, PAN-Biotech GmbH). Cells were pelleted by centrifugation for 10 min, 800×g at RT. RBC were counted and resuspended at 500.000.000 c/ml in DPBS (without Ca^2+/Mg^2+), based on total cell count.
# (§2) Saponin dilutions were prepared in DPBS (with Ca^2+/Mg^2+, PAN-Biotech GmbH), at 1.11× final strength. For positive lysis control a 0.02% Triton-X100 solution was prepared in DPBS^+/+. Of all compound solutions 135 μl was dispensed/well in a 96 well V-bottom plate. To this 15 μl RBC suspension was added and mixed shortly (10 sec-600 rpm). The plate was incubated 30 min at RT, with gentle agitation. Afterwards the plate was spun for 10 min at 800×g to pellet the RBC and 100-120 μl supernatant was transferred to a standard 96 wp (96 well-plate).
# as §2, with “DPBS+/+.” for “DPBS^+/+.”, “Afterwards the plate was spun for 10 min at 800×g to pellet the RBC and 100-120 μl supernatant was transferred to a standard 96 wp (96 well-plate).” left out
# HSP27 mRNA [2] = test: HSP27 mRNA gene silencing analysis in SK-BR-3 cells; conditions: in the presence of 4000 nM SO1861-Ald-EMCH
# From the text: as §1
substance,measurement,setting,value
cetuximab-HSP27BNA: cetuximab conjugated to the HSP27BNA (DAR1.5 or DAR4),IC50,HSP27 mRNA [1]; conjugate alone or + 100 nM SO1861-Ald-EMCH,> 100 nM
same,IC50,HSP27 mRNA [1]; in the presence of 4000 nM SO1861-Ald-EMCH,0.5 nM
cetuximab-SO1861 (DAR4): antibody-SO1861 conjugate,IC50,human red blood cells,> 60000 nM
trastuzumab-HSP27BNA: trastuzumab conjugated to the HSP27BNA (DAR4.4),IC50,HSP27 mRNA [2],0.5 nM
trastuzumab-SO1861 (DAR4): antibody-SO1861 conjugate,IC50,human red blood cells,200000 nM
